In patent US20070248996A1, “Modulators of beta-amyloid peptide aggregation comprising D-amino acids” (Paraecis Pharmaceuticals, Inc., priority 1995, published 2007):

Experiment: Brain uptake assay (Oldendorf technique, brain uptake index)
Conditions: percentage of the freely diffusable reference water; carotid bolus, 15 seconds; 14C-labelled; vehicle 50 mM cyclodextrin in 75% PBS

Q: Which “Brain Uptake Index (± SEM)” value does the source give for “cholyl-D-Leu-D-Val-D-Phe-phenethylamide [PPI-494]” here?
A: 4.78 ± 0.36
